Target: Prothrombin (Homo sapiens, UniProt P00734)
Assay: Inhibition of human thrombin
How it was run: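 Human thrombin incubated with compound and 20 µM fluorogenic Benzoyl-FVR-AMC in 50 mM Tris pH 8.0, 150 mM NaCl, 2.5 mM CaCl2, 2% DMSO. Cleavage followed as fluorescence change at 460 nm (excitation 355 nm) over 15 min at room temperature. IC50 derived from initial rates, fitted to replicate curves. Argatroban as positive control.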

In the case of `CC1CNc2c(cccc2S(=O)(=O)N[C@@H](CCCNC(=N)N)C(=O)N2CC[C@@H](C)C[C@@H]2C(=O)O)C1` (stereo partly specified) [ARGATROBAN], the IC50 is reported as 5.4 nM.

Reference: ChEMBL document CHEMBL1141302, “Anti-Helicobacter pylori and thrombin inhibitory components from Chinese dragon's blood, Dracaena cochinchinensis” (J Nat Prod, 2007)
